{"source": "paper PMC12811997", "about": "(Chemmedchem, 2025)", "assay": "Kinetic solubility"}
{"substance": "Ethyl 1‐(4‐(3‐(3,5‐Dichlorophenyl)Ureido)‐2‐(Trifluoromethyl)Benzyl)Piperidine‐4‐Carboxylate Hydrochloride [Compound 67]", "values": [{"measurement": "Kinetic solubility", "result": "<2,0 µM"}]}
